Laboratory results from ChEMBL document CHEMBL2396607 (Bioorg Med Chem Lett, 2013).

Amino acid sequences for entries named in this document (tags omitted).
UniProt P42336, whole entry: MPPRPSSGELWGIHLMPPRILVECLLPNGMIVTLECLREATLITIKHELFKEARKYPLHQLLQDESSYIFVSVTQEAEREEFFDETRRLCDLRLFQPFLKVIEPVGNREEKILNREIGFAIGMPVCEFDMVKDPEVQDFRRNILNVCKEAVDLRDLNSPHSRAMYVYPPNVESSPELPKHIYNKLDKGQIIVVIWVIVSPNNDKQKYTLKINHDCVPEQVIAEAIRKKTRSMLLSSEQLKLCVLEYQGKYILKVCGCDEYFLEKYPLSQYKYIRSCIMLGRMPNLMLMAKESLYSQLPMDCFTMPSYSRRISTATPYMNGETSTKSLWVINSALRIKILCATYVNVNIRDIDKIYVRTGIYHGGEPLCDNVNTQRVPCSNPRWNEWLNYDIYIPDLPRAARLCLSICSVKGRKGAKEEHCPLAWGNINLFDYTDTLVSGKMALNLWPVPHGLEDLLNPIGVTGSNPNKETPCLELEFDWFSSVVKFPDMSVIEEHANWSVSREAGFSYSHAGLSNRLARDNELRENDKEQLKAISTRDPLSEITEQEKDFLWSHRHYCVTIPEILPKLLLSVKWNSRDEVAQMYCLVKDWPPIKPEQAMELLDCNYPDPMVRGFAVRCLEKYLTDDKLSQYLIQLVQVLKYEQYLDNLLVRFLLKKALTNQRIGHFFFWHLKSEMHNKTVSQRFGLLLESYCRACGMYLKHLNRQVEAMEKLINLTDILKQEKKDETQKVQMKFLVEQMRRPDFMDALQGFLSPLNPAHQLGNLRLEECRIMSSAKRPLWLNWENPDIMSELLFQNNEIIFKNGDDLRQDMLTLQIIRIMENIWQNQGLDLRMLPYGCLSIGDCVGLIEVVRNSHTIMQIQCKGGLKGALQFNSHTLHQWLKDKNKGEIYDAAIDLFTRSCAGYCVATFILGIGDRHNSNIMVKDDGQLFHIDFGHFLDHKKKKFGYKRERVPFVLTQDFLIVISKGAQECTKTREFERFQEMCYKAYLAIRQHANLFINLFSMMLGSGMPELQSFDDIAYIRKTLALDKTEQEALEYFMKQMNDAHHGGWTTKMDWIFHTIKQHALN

How the values were obtained:
[1] = biological target: T1, Phosphatidylinositol 4,5-bisphosphate 3-kinase catalytic subunit alpha isoform (Homo sapiens, UniProt P42336); assay: Inhibition of N-terminal myristoylated P110alpha (unknown origin)-mediated AKT phosphorylation at Ser473 expressed in rat Rat1 cells by ELISA; format: cell-based
[2] = biological target: T1, Phosphatidylinositol 4,5-bisphosphate 3-kinase catalytic subunit alpha isoform; assay: Inhibition of P110alpha (unknown origin) using L-a-phosphatidylinositol as substrate by luminescence assay

| SMILES | IC50 [1] | IC50 [2] |
| --- | --- | --- |
| Cc1nc(NC(=O)N2CCC[C@H]2C(N)=O)sc1-c1ccnc(C2(C)CC2)n1 | 0.15 µM |  |
| Cc1nc(NC(=O)N2CCC[C@@H]2C(N)=O)sc1-c1ccnc(C(C)(C)C)c1 |  | > 9.1 µM |
| Cc1nc(NC(=O)N2CCC[C@H]2C(N)=O)sc1-c1ccnc(C(C)(C)C)c1 | 0.061 µM |  |
